The test system of series [1] is SKMES Human Lung Carcinoma Xenograft. As to conditions: for complete responses: SKMES, 6 mice, Day 60. As for the experimental part: Antitumor compounds were formulated for oral administration over a wide dose range in a study to investigate the efficacy of this compound against the SKMES human lung cancer xenograft. The antitumor compounds were prepared in the following vehicle: 5% ethanol, 5% Cremophor and 90% isotonic saline.
Female Nu/Nu mice (6-8 weeks of age; implanted with 1 mm^3 SKMES lung carcinoma fragments in the flank) were sorted into treatment groups of six mice each. SKMES size ranges and group mean SKMES size ranges were 126-448 mg and 238-241 mg, respectively. […] Treatments were administered as a single oral bolus on Day 1, and the study was terminated on Day 60.
The mean days of survival is the number of days after which a SKMES neoplasm reached a size of 2.0 g and the animal was euthanized. A complete response is obtained if the tumor is not palpable at the end of the study. A partial response is obtained if the tumor shrinks to a size smaller than its size on Day 1 of the study. […]

Series [2] has as its system Panc-1 Human Pancreatic Carcinoma Xenografts. As to conditions: for stable disease / toxic deaths: Panc-1, 6 mice/group; for stable disease: i.v. qd x 1 (mg/kg: Taxol 24, 1393 72.6, 1418 107.6), Day 63; for toxic deaths: i.v. qd x 1 (mg/kg: Taxol 24, 1351 75.32, 1393 72.6, 1401 107.6, 1418 107.6, 1424 195.1). As for the experimental part:
(§1) Other antitumor compounds were similarly formulated. […] The dosing volume was 0.3 mL per 20 g mouse.
Female NCr-nude mice (6-8 weeks of age, implanted subcutaneously with 1 mm^3 Panc-1 pancreatic carcinoma fragments in the flank) were sorted into treatment groups of six mice each. […] Dosing was initiated on Day 1. The antitumor compounds were given i.v. at an estimated maximum tolerated dose (MTD) appropriate for each agent on a qd x 1 schedule (single administration of compound). […] Taxotere was given i.v. at a dose of 70 mg/kg on a qd x 1 schedule. The vehicle was given i.v. to control mice in Group 1 in each test on Day 1 (qd x 1) schedule. Treatment groups are detailed in Table 12. The study was terminated on Day 63.
The mean days of survival is the number of days after which a neoplasm reached a size of 1.5 g and the animal was euthanized. A complete response is obtained if the tumor is not palpable at the end of the study. A partial response is obtained if the tumor shrinks to a size smaller than its size on Day 1 of the study.

Series [3] has as its system A375 Human Melanoma Xenograft. The note with it: 1393 104 mg/kg single oral bolus (Group 3), 10 mice, Day 60. The protocol:
Female nu/nu mice (6-8 weeks of age; implanted subcutaneously with 1 mm^3 A375 melanoma fragments in the flank) were sorted into one control and four treatment groups of ten mice each (group mean tumor size of 96-98 mg). […] The study was terminated on Day 60.
The mean days of survival is the number of days after which a neoplasm reached a size of 2.0 g and the animal was euthanized. A complete response is obtained if the tumor is not palpable at the end of the study. A partial response is obtained if the tumor shrinks to a size smaller than its size on Day 1 of the study.

The subject of series [4] is VM46 Human Colon Carcinoma Xenografts. As to conditions: for toxic deaths: VM46, i.v. qd x 1 at estimated MTD, 6 mice/group. The protocol: as §1
Female NCr-nude mice (6-8 weeks of age, implanted subcutaneously with 1 mm^3 VM46 colon carcinoma fragments in the flank) were sorted into treatment groups of six mice each. […] Dosing was initiated on Day 1. The antitumor compounds were given i.v. at an estimated maximum tolerated dose (MTD) appropriate for each agent on a qd x 1 schedule (single administration of compound). […] Taxotere was given i.v. at a dose of 70 mg/kg on a qd x 1 schedule. The vehicle was given i.v. to control mice in Group 1 in each test on Day 1 (qd x 1) schedule. Treatment groups are detailed in Table 13. The VM46 study ended on Day 64.
The results are summarized in table 14 and include mean days of survival (MDS), number of toxic deaths, number of survivors, number of complete or partial responses, and number with stable disease. The mean days of survival is the number of days after which a neoplasm reached a size of 1.5 g and the animal was euthanized. A complete response is obtained if the tumor is not palpable at the end of the study. A partial response is obtained if the tumor shrinks to a size smaller than its size on Day 1 of the study. […]

Series [5] concerns SKMES Human Lung Carcinoma Xenograft. The protocol: The antitumor compound was prepared in the following vehicle: 10% ethanol and 90% Liposyn III.
Female Nu/Nu mice (6-8 weeks of age; implanted with 1 mm^3 SKMES lung carcinoma fragments in the flank) were sorted into treatment groups of six mice each. SKMES size ranges and group mean SKMES size ranges were 126-448 mg and 238-241 mg, respectively. […] Treatments were administered as a single i.v. bolus on Day 1, and the study was terminated on Day 60.
The mean days of survival is the number of days after which a SKMES neoplasm reached a size of 2.0 g and the animal was euthanized. A complete response is obtained if the tumor is not palpable at the end of the study. A partial response is obtained if the tumor shrinks to a size smaller than its size on Day 1 of the study.

Where [6] appears, read: 1418 single i.v. bolus 108 mg/kg (Group 3), 6 mice, Day 60.

Read-outs that look alike come from different tables or passages of the source.

For `CCC(=O)OC1CC2OCC2(OC(C)=O)C2C(OC(=O)c3ccccc3)C3(O)CC(OC(=O)C(O)C(NC(=O)OC(C)(C)C)c4ccco4)C(C)=C(C(O)C(=O)C12C)C3(C)C` (stereo not shown) [Compound 1393, 3'-Desphenyl-3'-(2-furyl)-7-propionyl taxotere], the complete responses result in series [1] (1393 single oral bolus 73 mg/kg (Group 6)) and in series [1] (1393 single oral bolus 104 mg/kg (Group 5)) was “Five” each time. Moreover, in series [2], the stable disease result is given as “one”. In addition, the complete regression responses entry in series [3] is reported as “nine”.

As for `CCC(=O)O[C@H]1C[C@H]2OC[C@@]2(OC(C)=O)[C@H]2[C@H](OC(=O)c3ccccc3)[C@]3(O)C[C@H](OC(=O)[C@H](O)[C@@H](NC(=O)OC(C)(C)C)c4ccco4)C(C)=C([C@@H](O)C(=O)[C@]12C)C3(C)C` [Compound 1393, 3'-Desphenyl-3'-(2-furyl)-7-propionyl taxotere], the toxic deaths result in series [2] and in series [4] was “no toxic deaths” each time.

Consider `CCC(=O)O[C@H]1C[C@H]2OC[C@@]2(OC(C)=O)[C@H]2[C@H](OC(=O)c3ccccc3)[C@]3(O)C[C@H](OC(=O)[C@H](O)[C@@H](NC(=O)OC(C)(C)C)c4cccs4)C(C)=C([C@@H](O)C(=O)[C@]12C)C3(C)C` [Compound 1418], for which the “MDS relative to Group 1 control” value in series [5] (1418 single i.v. bolus 15 mg/kg (Group 5)) is reported as “essentially the same”. In addition, in series [5] (setting [6]), the complete response entry is given as “One” and the partial responses entry is “two”. Also, in series [5] (1418 single i.v. bolus 154 mg/kg (Group 2), 10% ethanol/90% Liposyn III, 6 mice, Day 60), the complete responses result is “Five”. This compound showed a Survivors in series [1] (90 mg/kg single oral bolus Day 1, 6 mice/group, study end Day 60) of 6. Also, in series [2], the toxic deaths entry is listed as “no toxic deaths” and the stable disease entry is reported as “one”. In series [2] (mouse, in vivo, iv), the tolerability result is “well-tolerated”. Also, the toxic deaths result in series [4] is reported as “no toxic deaths”. In addition, the tolerability entry in series [4] (mouse, in vivo, iv) was “quite well-tolerated”.

The record behind these values is patent EP1285918A1, “C7 Ester substituted taxanes as antitumor agents” (Florida State University Research Foundation, Inc., priority 2001, dated 2003).
